What is called Kd is the constant that tells how readily two partners part at equilibrium. The low end stands for a tighter complex, the high end for a looser complex.

Protein sequences, listed by entry. Tags and fused reporters are not part of them. Lines headed by an entry give the natural chain unless they say otherwise; changes in a name come on top.
UniProt P53779: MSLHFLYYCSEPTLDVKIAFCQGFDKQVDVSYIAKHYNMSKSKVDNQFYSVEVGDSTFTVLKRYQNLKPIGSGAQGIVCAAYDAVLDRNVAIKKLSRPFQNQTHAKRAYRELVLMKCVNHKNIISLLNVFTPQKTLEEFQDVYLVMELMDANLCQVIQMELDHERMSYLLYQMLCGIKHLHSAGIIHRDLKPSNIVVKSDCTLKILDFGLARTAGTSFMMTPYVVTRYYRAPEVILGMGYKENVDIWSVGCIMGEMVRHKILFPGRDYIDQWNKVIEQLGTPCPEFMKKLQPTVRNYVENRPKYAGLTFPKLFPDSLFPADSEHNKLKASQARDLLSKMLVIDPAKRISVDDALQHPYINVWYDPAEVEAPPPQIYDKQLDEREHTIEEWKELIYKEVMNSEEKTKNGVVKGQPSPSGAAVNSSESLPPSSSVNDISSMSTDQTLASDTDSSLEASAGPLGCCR

The target of one assay is T1, Ephrin type-A receptor 8 (Homo sapiens, UniProt P29322).
T1 sequence (P29322 whole entry): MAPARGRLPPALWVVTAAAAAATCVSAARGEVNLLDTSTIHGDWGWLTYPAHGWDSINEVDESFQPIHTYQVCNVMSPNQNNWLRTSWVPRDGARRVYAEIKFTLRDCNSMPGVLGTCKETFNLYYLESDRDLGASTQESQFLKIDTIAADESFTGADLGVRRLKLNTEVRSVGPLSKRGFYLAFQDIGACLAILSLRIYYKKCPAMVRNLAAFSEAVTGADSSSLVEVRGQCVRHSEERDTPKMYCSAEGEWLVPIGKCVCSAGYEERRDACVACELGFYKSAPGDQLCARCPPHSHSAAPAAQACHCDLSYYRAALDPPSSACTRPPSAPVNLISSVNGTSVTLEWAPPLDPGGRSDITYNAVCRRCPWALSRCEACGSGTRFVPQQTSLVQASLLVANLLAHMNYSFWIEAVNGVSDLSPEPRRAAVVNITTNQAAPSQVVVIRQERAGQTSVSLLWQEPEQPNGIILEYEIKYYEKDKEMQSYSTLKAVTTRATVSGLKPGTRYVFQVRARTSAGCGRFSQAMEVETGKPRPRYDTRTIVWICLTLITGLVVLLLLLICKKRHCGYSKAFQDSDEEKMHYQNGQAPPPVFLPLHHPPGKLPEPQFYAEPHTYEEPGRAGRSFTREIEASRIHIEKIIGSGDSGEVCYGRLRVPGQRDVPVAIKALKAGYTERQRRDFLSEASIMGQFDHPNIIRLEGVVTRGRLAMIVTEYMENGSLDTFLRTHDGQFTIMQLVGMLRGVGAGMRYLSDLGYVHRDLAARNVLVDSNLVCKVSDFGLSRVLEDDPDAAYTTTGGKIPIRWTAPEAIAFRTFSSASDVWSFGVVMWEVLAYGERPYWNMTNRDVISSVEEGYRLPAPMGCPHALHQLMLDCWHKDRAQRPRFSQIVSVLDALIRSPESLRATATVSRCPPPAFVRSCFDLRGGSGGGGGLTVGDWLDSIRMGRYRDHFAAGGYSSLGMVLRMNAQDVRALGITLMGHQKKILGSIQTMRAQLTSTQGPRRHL

Assay [1] deals with Mitogen-activated protein kinase 10 (Homo sapiens, UniProt P53779).

`CCOc1cc2ncc(C#N)c(Nc3ccc(F)c(Cl)c3)c2cc1NC(=O)/C=C/CN(C)C` [PELITINIB] registered a Kd on Ephrin type-A receptor 8 of 400 nM.
Regarding `Oc1c2ccccc2c2c3c(cccc13)N=N2` [SP-600125], the Kd in assay [1] was 22 nM.

These data come from ChEMBL document CHEMBL1144455, “A small molecule-kinase interaction map for clinical kinase inhibitors” (Nat Biotechnol, 2005).
